Measured values as given in ChEMBL document CHEMBL6134806, “Oligonucleotide-based telomerase inhibitors with a photoresponsive α-chloroaldehyde” (Bioorg Med Chem Lett, 2025).
Activity calls are given as the source filed them. The calls are words filed in the database; no cut-off is given here.

Amino acid sequences for entries named in this document (tags omitted). A change or cut given only in a name is not applied to a line headed by its entry.
UniProt O14746: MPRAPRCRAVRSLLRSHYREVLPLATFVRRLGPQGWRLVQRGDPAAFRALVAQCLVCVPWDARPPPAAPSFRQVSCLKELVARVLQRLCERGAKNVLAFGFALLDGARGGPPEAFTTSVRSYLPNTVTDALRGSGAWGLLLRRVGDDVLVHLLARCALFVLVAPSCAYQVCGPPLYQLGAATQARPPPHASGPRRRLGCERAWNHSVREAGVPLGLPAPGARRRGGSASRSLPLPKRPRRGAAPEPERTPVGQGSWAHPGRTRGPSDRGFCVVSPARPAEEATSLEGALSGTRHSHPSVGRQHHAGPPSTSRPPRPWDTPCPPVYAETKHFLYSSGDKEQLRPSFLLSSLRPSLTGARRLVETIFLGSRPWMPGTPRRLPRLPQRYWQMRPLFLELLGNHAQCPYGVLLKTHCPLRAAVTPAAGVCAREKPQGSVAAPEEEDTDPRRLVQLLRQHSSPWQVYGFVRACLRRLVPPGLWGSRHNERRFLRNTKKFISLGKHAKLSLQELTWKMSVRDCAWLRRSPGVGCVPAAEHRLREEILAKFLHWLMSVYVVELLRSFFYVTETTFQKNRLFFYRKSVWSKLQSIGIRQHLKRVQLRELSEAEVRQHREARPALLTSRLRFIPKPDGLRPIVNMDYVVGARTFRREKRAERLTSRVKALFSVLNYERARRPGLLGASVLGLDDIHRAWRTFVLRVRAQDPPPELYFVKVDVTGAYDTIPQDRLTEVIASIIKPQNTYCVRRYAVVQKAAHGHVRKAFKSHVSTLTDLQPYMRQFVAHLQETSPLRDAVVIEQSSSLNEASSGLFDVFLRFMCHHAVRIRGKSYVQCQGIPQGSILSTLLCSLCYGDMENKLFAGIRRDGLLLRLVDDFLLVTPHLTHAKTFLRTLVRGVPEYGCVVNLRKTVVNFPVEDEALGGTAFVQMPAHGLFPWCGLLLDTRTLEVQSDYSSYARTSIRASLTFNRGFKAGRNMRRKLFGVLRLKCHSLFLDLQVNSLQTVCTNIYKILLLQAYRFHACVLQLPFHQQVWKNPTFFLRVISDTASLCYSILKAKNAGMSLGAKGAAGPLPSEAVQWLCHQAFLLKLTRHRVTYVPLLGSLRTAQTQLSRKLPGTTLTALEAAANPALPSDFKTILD

Molecular target: Telomerase reverse transcriptase (Homo sapiens) (UniProt O14746)
Experiment: Inhibition of telomerase activity (unknown origin) in presence of UV irradiation

Row | inhibition | Compound
1 | inactive | Cc1cn([C@H]2C[C@H](OP(=O)(O)OC[C@H]3O[C@@H](n4cnc5c(=O)[nH]c(N)nc54)C[C@@H]3OP(=O)(O)OC[C@H]3O[C@@H](n4cnc5c(N)ncnc54)C[C@@H]3OP(=O)(O)OC[C@H]3O[C@@H](n4cnc5c(=O)[nH]c(N)nc54)C[C@@H]3OP(=O)(O)OC[C@H]3O[C@@H](n4ccc(N)nc4=O)C[C@@H]3OP(=O)(O)OC[C@H]3O[C@@H](n4cnc5c(=O)[nH]c(N)nc54)C[C@@H]3OP(=O)(O)OC[C@H]3O[C@@H](n4cc(C)c(=O)[nH]c4=O)C[C@@H]3OP(=O)(O)OC[C@H]3O[C@@H](n4cnc5c(N)ncnc54)C[C@@H]3OP(=O)(O)OC[C@H]3O[C@@H](n4cc(C)c(=O)[nH]c4=O)C[C@@H]3OP(=O)(O)OC[C@H]3O[C@@H](n4cnc5c(=O)[nH]c(N)nc54)C[C@@H]3OP(=O)(O)OC[C@H]3O[C@@H](n4cc(C)c(=O)[nH]c4=O)C[C@@H]3OP(=O)(O)OC[C@H]3O[C@@H](n4cnc5c(=O)[nH]c(N)nc54)C[C@@H]3OP(=O)(O)OC[C@H]3O[C@@H](n4cnc5c(N)ncnc54)C[C@@H]3OCC(C)(CO)C(=O)NCCCCC(Cl)C(OCc3ccccc3[N+](=O)[O-])OCc3ccccc3[N+](=O)[O-])[C@@H](COP(=O)(O)OCCOCCOCCOCCOCCOCCO)O2)c(=O)[nH]c1=O (some centres not stated)
2 | inactive | Cc1cn([C@H]2C[C@H](OP(=O)(O)OC[C@H]3O[C@@H](n4cnc5c(=O)[nH]c(N)nc54)C[C@@H]3OP(=O)(O)OC[C@H]3O[C@@H](n4cnc5c(N)ncnc54)C[C@@H]3OP(=O)(O)OC[C@H]3O[C@@H](n4cnc5c(=O)[nH]c(N)nc54)C[C@@H]3OP(=O)(O)OC[C@H]3O[C@@H](n4ccc(N)nc4=O)C[C@@H]3OP(=O)(O)OC[C@H]3O[C@@H](n4cnc5c(=O)[nH]c(N)nc54)C[C@@H]3OP(=O)(O)OC[C@H]3O[C@@H](n4cc(C)c(=O)[nH]c4=O)C[C@@H]3OP(=O)(O)OC[C@H]3O[C@@H](n4cnc5c(N)ncnc54)C[C@@H]3OP(=O)(O)OC[C@H]3O[C@@H](n4cc(C)c(=O)[nH]c4=O)C[C@@H]3OP(=O)(O)OC[C@H]3O[C@@H](n4cnc5c(=O)[nH]c(N)nc54)C[C@@H]3OP(=O)(O)OC[C@H]3O[C@@H](n4cc(C)c(=O)[nH]c4=O)C[C@@H]3OP(=O)(O)OC[C@H]3O[C@@H](n4cnc5c(=O)[nH]c(N)nc54)C[C@@H]3OP(=O)(O)OC[C@H]3O[C@@H](n4cnc5c(N)ncnc54)C[C@@H]3OCCOCCOCCOCCOCCOCCO)[C@@H](COP(=O)(O)OCC(C)(CO)C(=O)NCCCCC(Cl)C(OCc3ccccc3[N+](=O)[O-])OCc3ccccc3[N+](=O)[O-])O2)c(=O)[nH]c1=O (some centres not stated)
